According to the CheMixHub viscosity set:
Values joined by “and” are separate entries in the source; they are usually repeats but may differ in a detail not shown here. Equal entries are not always repeated.

How the values were obtained:
[1] = xn = mol fraction of the nth substance listed; conditions: 101 kPa

OCCOCCOCCOCCO
viscosity
Conditions	293.15 K	298.15 K	303.15 K	308.15 K	313.15 K	318.15 K	323.15 K
100 kPa	59.5 mPa·s	44.6 mPa·s and 44.63 mPa·s	35.5 mPa·s and 34.79 mPa·s	28.8 mPa·s and 27.72 mPa·s	–	18.32 mPa·s	15.29 mPa·s
101 kPa	–	–	–	27.89 mPa·s and 25.75 mPa·s	20.65 mPa·s	18.43 mPa·s and 16.76 mPa·s	15.35 mPa·s
101.32 kPa	–	–	–	–	22.8 mPa·s	–	–
101.33 kPa	59.5 mPa·s	44.5 mPa·s	35.2 mPa·s	–	23.1 mPa·s	–	–

OCCOCCOCCOCCO + CCCCOCCO
[1]
Conditions	viscosity [mPa·s]
293.15 K, x2 = 0.053	47.59
293.15 K, x2 = 0.1047	42.21
293.15 K, x2 = 0.1967	34.08
293.15 K, x2 = 0.3005	26.69
293.15 K, x2 = 0.4003	20.84
293.15 K, x2 = 0.454	18.19
293.15 K, x2 = 0.4998	16.09
293.15 K, x2 = 0.55	14.05
293.15 K, x2 = 0.595	12.39
293.15 K, x2 = 0.6961	9.19
293.15 K, x2 = 0.7962	6.79
293.15 K, x2 = 0.8953	4.815
293.15 K, x2 = 0.9473	3.981
298.15 K, x2 = 0.0496	40.08
298.15 K, x2 = 0.1032	36.04
298.15 K, x2 = 0.2034	29.22
298.15 K, x2 = 0.2967	23.75
298.15 K, x2 = 0.4007	18.65
298.15 K, x2 = 0.4492	16.58
298.15 K, x2 = 0.5	14.6
298.15 K, x2 = 0.5507	12.81
298.15 K, x2 = 0.602	11.18
298.15 K, x2 = 0.6995	8.452
298.15 K, x2 = 0.7986	6.25
298.15 K, x2 = 0.8939	4.458
298.15 K, x2 = 0.9515	3.524
303.15 K, x2 = 0.0559	32.33
303.15 K, x2 = 0.1039	29.55
303.15 K, x2 = 0.2032	24.4
303.15 K, x2 = 0.3	20.07
303.15 K, x2 = 0.4036	16.1
303.15 K, x2 = 0.4492	14.55
303.15 K, x2 = 0.4999	12.95
303.15 K, x2 = 0.5496	11.49
303.15 K, x2 = 0.5908	10.38
303.15 K, x2 = 0.6872	8.028
303.15 K, x2 = 0.7917	5.852
303.15 K, x2 = 0.8981	3.981
303.15 K, x2 = 0.9472	3.218

OCCOCCOCCOCCO + CCCC[N+](CCCC)(CCCC)CCCC.[Br-]
[1], x2 = 0.2
Conditions	viscosity [mPa·s]
298.15 K	94.6
303.15 K	71.9
308.15 K	56.7
313.15 K	45.3
318.15 K	36.7
323.15 K	30.5

OCCOCCOCCOCCO + CCOCCO
[1]
Conditions	viscosity [mPa·s]
293.15 K, x2 = 0.0502	47.89
293.15 K, x2 = 0.0969	43.09
293.15 K, x2 = 0.2063	33.37
293.15 K, x2 = 0.2971	26.66
293.15 K, x2 = 0.4006	20.22
293.15 K, x2 = 0.4466	17.75
293.15 K, x2 = 0.5031	15
293.15 K, x2 = 0.5526	12.92
293.15 K, x2 = 0.5998	11.11
293.15 K, x2 = 0.7001	7.904
293.15 K, x2 = 0.7995	5.434
293.15 K, x2 = 0.9	3.553
293.15 K, x2 = 0.95	2.792
298.15 K, x2 = 0.0686	38.73
298.15 K, x2 = 0.1055	35.94
298.15 K, x2 = 0.1983	29.37
298.15 K, x2 = 0.2962	23.47
298.15 K, x2 = 0.3972	18.27
298.15 K, x2 = 0.4507	15.9
298.15 K, x2 = 0.5008	13.91
298.15 K, x2 = 0.5475	12.21
298.15 K, x2 = 0.5997	10.48
298.15 K, x2 = 0.7	7.546
298.15 K, x2 = 0.7998	5.214
298.15 K, x2 = 0.8932	3.431
298.15 K, x2 = 0.9502	2.517
303.15 K, x2 = 0.0528	32.26
303.15 K, x2 = 0.1002	29.43
303.15 K, x2 = 0.1959	24.27
303.15 K, x2 = 0.305	19.16
303.15 K, x2 = 0.4084	14.96
303.15 K, x2 = 0.4513	13.36
303.15 K, x2 = 0.4997	11.72
303.15 K, x2 = 0.5489	10.24
303.15 K, x2 = 0.5937	9.006
303.15 K, x2 = 0.6994	6.489
303.15 K, x2 = 0.8006	4.511
303.15 K, x2 = 0.9014	2.903
303.15 K, x2 = 0.9481	2.266
